± gives the expanded uncertainty stated by the source.

The series is described as follows: molar enthalpy of vaporization or sublimation. The conditions noted are these: 298.15 K; Crystal; Static calorimetry.

Take `c1ccc2cccc-2cc1` [bicyclo[5.3.0]deca-2,4,6,8,10-pentaene]: the molar enthalpy was determined as 19.4 ± 0.359 kcal/mol.

Source of the values: the NIST ThermoML archive (doi:10.1016/j.jct.2013.11.008).
